The structures appear in SMILES notation. Only a part is listed here, and it is no random draw. Activity calls are given as the source filed them.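 How the source made its calls: active means mean replicate inhibition of at least 30% and at least 1% of replicates passing that level; inconclusive means only one of the two criteria is met; inactive means neither criterion is met.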

For the experiment, the system named is Voltage-dependent L-type calcium channel subunit alpha-1D (CaV1.3) ICDI/IQ interaction. Put plainly: Primary screen for inhibitors of IQ motif and Ca2+-dependent inactivation inhibitor domain binding in CACNA1D, Förster resonance energy transfer in living cells, single-concentration test (AID 743397).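 Further: 0% = median of the neutral control wells.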 The conditions noted are these: HEK cells, CFP/YFP FRET ICDI-IQ, plate reader, 10 min; at 12.3 µM; stronger effect = higher value; percent FRET-ratio fall versus neutral wells.
What is called inhibition is the relative decrease from the control value, in per cent. For `C[C@H]1OP(=O)(Oc2ccccc2)[C@H](O)[C@H](O)[C@H]1N=[N+]=[N-]` (stereo partly specified), the inhibition was inactive: -11.2%.

These data come from PubChem BioAssay AID743397 (Broad Institute, 2014).
